The assay deals with cyclosporin A (CsA) derivative containing a D-lysine residue, biotinylated. As to the kind of experiment: ribosome-display competition experiment, selection on CsA-coated beads; reference E. coli PpiB.

On to “human cyclophilin A (CyPA) (from UniProt P62937 1-165) (enzyme)”, for which the single-round selectivity for binding of CsA-coated beads by CyPA over PpiB came out at 20 fold.
